# Measurements from patent publication US20220117949A1, “LTA4H INHIBITORS FOR THE TREATMENT OF HIDRADENITIS SUPPURATIVA” (NOVARTIS AG, priority 2019, published 2022).
# Conditions: Part 1, 30 mg, 24 hours
# Excerpt: In parts 1 and 2 of the clinical study (SAD and MAD), skin blisters were induced on the arm of subjects in selected cohorts.
# Blister fluid samples were collected at Day 1 pre-dose and Day 2 pre-dose in SAD cohort 4 as well as Day 1 pre-dose and Day 9 predose in MAD cohort 2-5.
smiles,measurement,value
"N[C@@H](CC(=O)O)Cn1nnc(-c2ccc(Oc3ncc(Cl)cc3F)cc2)n1 [compound of example 1, (S)-3-amino-4-(5-(4-((5-chloro-3-fluoropyridin-2-yl)oxy)phenyl)-2H-tetrazol-2-yl)butanoic acid]",blister fluid concentration relative to plasma concentration at the same time,approximately two-fold
